In patent publication US20050282889A1, “Intracorporeal medicaments for photodynamic treatment of disease” (priority 1996, published 2005):

Assays:
[1] = Partition coefficient Kp, n-octanol / phosphate buffered saline; details: ratio of equilibrium concentrations, n-octanol vs PBS pH=7.4
[2] = Absorbance properties of halogenated xanthenes (λmax, α); type: physicochemical
Source text: Selected chemical and physical properties (such as chemical constituents at positions X, Y, and Z and functionalities R^1 and R^2, along with molecular weight and photochemical characteristics) of representative halogenated xanthenes are summarized in attached Table 1. Certain general properties of this class of agents are discussed in further detail in U.S. Ser. No. 09/130,041, filed on Aug. 6, 1998, U.S. Ser. No. 09/184,388, filed on Nov. 2, 1998, and U.S. Ser. No. 09/216,787, filed on Dec. 21, 1998, which are herein incorporated by reference in their entirety. […]
Further, as evidenced by the data shown in Table 1 (infra) and in FIG. 2, halogenated xanthenes share common spectroscopic properties, including a high single-photon cross-section extending from approximately 500 nm to 600 nm. […] Such excitation methods provide additional utility in the activation of medicaments formulated from these agents, for example when it is desirable to increase the depth of photoactivation to positions substantially beyond that readily accessible using visible light excitation methods.

Row | Kp (partition coefficient) [1] | λmax (nm) EtOH [2] [nm] | Structure (SMILES)
1 | 11.5 | – | O=C1OC2(c3cc(I)c(O)c(I)c3Oc3c2cc(I)c(O)c3I)c2c(Cl)c(Cl)c(Cl)c(Cl)c21 [Rose Bengal, 4,5,6,7-tetrachloro-2′,4′,5′,7′-Tetraiodofluorescein]
2 | – | 559 | CCN(CC)CC.CCN(CC)CC.O=C(O)c1c(Cl)c(Cl)c(Cl)c(Cl)c1-c1c2cc(I)c(=O)c(I)c-2oc2c(I)c(O)c(I)cc12 [Rose Bengal Derivative II]
